Data published in patent publication US9162991B2 (University of Ottawa, priority 2007, dated 2015).

test: Solubility in the solvent mixture used for the enzymatic assay; conditions: 5% DMF/H2O solvent mixture; compared with benzotriazolyl amide inhibitors

| SMILES | solubility (relative) |
| --- | --- |
| Nc1ccc(/C=C/C(=O)c2cccnc2)cc1 [Compound 30r, (E)-3-(4-aminophenyl)-1-(pyridin-3-yl)prop-2-en-1-one] | relatively more soluble |
| CC(=O)Nc1ccc(/C=C/C(=O)c2cccnc2)cc1 [Compound 30t, (E)-3-(4-acetylaminophenyl)-1-(pyridin-3-yl)prop-2-en-1-one] | relatively more soluble |
| O=C(/C=C/c1ccc([N+](=O)[O-])cc1)c1cccnc1 [Compound 30a, (E)-3-(4-nitrophenyl)-1-(pyridin-3-yl)prop-2-en-1-one] | relatively more soluble |
